# Assay results taken from PubChem BioAssay AID2445 (The Scripps Research Institute Molecular Screening Center, 2010).
# By UniProt entry, the sequences of proteins in these tests, tags left out.
# UniProt P30559, whole entry: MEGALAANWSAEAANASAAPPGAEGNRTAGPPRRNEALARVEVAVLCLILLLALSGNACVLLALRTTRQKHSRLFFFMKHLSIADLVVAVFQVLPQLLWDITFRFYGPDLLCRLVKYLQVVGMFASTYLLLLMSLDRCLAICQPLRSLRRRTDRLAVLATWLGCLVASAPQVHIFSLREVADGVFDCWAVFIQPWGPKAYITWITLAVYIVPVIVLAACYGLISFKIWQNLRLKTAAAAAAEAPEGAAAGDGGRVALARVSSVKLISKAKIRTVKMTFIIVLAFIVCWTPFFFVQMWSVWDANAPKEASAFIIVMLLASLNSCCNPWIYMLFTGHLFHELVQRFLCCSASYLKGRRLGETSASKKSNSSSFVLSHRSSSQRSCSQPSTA
# This is a selection; strong and weak results do not stand in their true shares. Some structures show a salt or complex split into parts, the way the source records it. Calls of active or inactive are those of the source.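 The calls were made as follows: active = activation above that plate's cutoff, the mean activation of tested compounds plus 3 SD (cut at about 6.6% in these data, passing the limit was not always enough); inactive = the rest.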
# Target: Oxytocin receptor (Homo sapiens) (UniProt P30559)
# Assay: human OXTR potentiators, primary screen, fluorescence, CHO-OTR cells, Fluo-8 calcium (AID 2445);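 also: 100% uses oxytocin at 75 nM as the full agonist control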
# Settings: Fluo-8 calcium fluorescence, potentiator mode, at 3 µM, active compounds read high, 0% = oxytocin EC15, 100% = EC100
row,SMILES,activation
1,CCOC(=O)C(CC)C1=NC(C)(C)Cc2ccccc21.O=[N+]([O-])c1cc([N+](=O)[O-])c(O)c([N+](=O)[O-])c1 (stereo not drawn),inactive: -1.98%
2,CC1=C2N=C(C=C3N=C(C(C)=C4[N-][C@@](C)([C@@H]5N=C1[C@](C)(CCC(=O)NC[C@@H](C)OP(=O)([O-])O[C@H]1[C@@H](O)[C@@H](n6cnc7cc(C)c(C)cc76)O[C@@H]1CO)[C@H]5CC(N)=O)[C@@](C)(CC(N)=O)[C@@H]4CCC(N)=O)[C@@](C)(CC(N)=O)[C@@H]3CCC(N)=O)C(C)(C)[C@@H]2CCC(N)=O.[C-]#N.[Co+3],inactive: -4.71%
3,O=[N+]([O-])c1cc([N+](=O)[O-])c(Nc2nnnn2CCO)c([N+](=O)[O-])c1,inactive: -0.72%
4,CN1CCCCC1COC(=O)C1(O)c2ccccc2CCc2ccccc21 (stereo not drawn),inactive: 0.76%
5,COc1ccccc1OP(C)(=O)Nc1c(C)cccc1C (stereo not drawn),inactive: -3.41%
6,CCCOc1ccc(NP(C)(=O)Oc2ccc(Cl)cc2)cc1 (stereo not drawn),inactive: -2.98%
7,CP(=O)(Nc1ccc(SC(F)(F)F)cc1)Oc1ccccc1 (stereo not drawn),inactive: -8.42%
8,O=[N+]([O-])c1cc([N+](=O)[O-])c(-n2nnc3ccccc32)c([N+](=O)[O-])c1,inactive: 4.2%
9,O=[N+]([O-])c1cc([N+](=O)[O-])c(-c2cnn(-c3ccccc3)c2)c([N+](=O)[O-])c1,inactive: -5.34%
10,Cc1nc2ccc3ccccc3c2s1.O=[N+]([O-])c1cc([N+](=O)[O-])c(O)c([N+](=O)[O-])c1,inactive: -9.86%
11,COc1ccccc1OP(C)(=O)Nc1cccc(Br)c1 (stereo not drawn),inactive: -1.8%
12,CCOC(=O)c1ccc(NP(C)(=O)Oc2cc(C)cc(C)c2)cc1 (stereo not drawn),inactive: -6.86%
13,Cc1cc(C)cc(OP(C)(=O)Nc2ccc(C)cc2C)c1 (stereo not drawn),inactive: -2.65%
14,Cc1ccc(C)c(NP(C)(=O)Oc2ccccc2)c1 (stereo not drawn),inactive: -6.02%
15,Cc1cc(C)cc(OP(C)(=O)Nc2ccccn2)c1 (stereo not drawn),inactive: -1.35%
16,CP(=O)(Nc1cccc(Br)c1)Oc1ccccc1 (stereo not drawn),inactive: 0.18%
17,O=C(O)c1cccc(Nc2c([N+](=O)[O-])cc([N+](=O)[O-])cc2[N+](=O)[O-])c1,inactive: -19.8%
18,CC1=NCCc2c1[nH]c1ccccc21.O=[N+]([O-])c1cc([N+](=O)[O-])c(O)c([N+](=O)[O-])c1,inactive: -1.84%
19,O=[N+]([O-])c1cc([N+](=O)[O-])c(Nc2cccnc2)c([N+](=O)[O-])c1,inactive: -13.2%
20,O=[N+]([O-])c1ccc2c(c1)C=Nc1ccccc1O2,inactive: -3.09%
21,Cc1cccc(C)c1OP(C)(N)=O (stereo not drawn),inactive: -18.4%
22,CC(C)(C)c1ccc(OP(C)(=O)Nc2ccc(SC(F)(F)F)cc2)cc1 (stereo not drawn),inactive: -7.32%

row,SMILES,activation
1,Cc1ccc(NP(C)(=O)Oc2ccccc2)c(C)c1 (stereo not drawn),inactive: -16.7%
2,COc1ccccc1OP(C)(=O)Nc1ccc(C)cc1 (stereo not drawn),inactive: -12%
3,CCOC(=O)c1ccc(NP(C)(=O)Oc2ccccc2)cc1 (stereo not drawn),inactive: -5.32%
4,Cc1cc(C)cc(OP(C)(N)=O)c1 (stereo not drawn),inactive: -0.15%
5,COc1ccc(OP(C)(=O)Nc2cccc(F)c2)cc1 (stereo not drawn),inactive: -14.3%
6,COc1ccccc1OP(C)(=O)Nc1cc(Cl)ccc1C (stereo not drawn),inactive: -14.7%
7,CCN(CC)CCCOC(=O)C(O)(c1ccccc1)c1ccccc1,inactive: -4.42%
8,CP(=O)(Oc1ccccc1)OC(c1ccccc1)C(F)(F)F (stereo not drawn),inactive: -1.7%
9,CP(=O)(Nc1ccc(SC(F)(F)F)cc1)Oc1ccc(Cl)cc1 (stereo not drawn),inactive: -2.22%
10,Cc1cccc(C)c1OP(C)(=O)Nc1ccc(SC(F)(F)F)cc1 (stereo not drawn),inactive: -9.14%
11,Cc1cc(C)cc(OP(C)(=O)Nc2ccc(SC(F)(F)F)cc2)c1 (stereo not drawn),inactive: -11.7%
12,CP(=O)(NC(=O)Nc1ccccc1)Oc1ccccc1 (stereo not drawn),inactive: 3.47%
13,CCc1ccc(OP(C)(=O)N2CCN(c3ccc([N+](=O)[O-])cc3)CC2)cc1 (stereo not drawn),inactive: -12.7%
14,O=[N+]([O-])c1cc([N+](=O)[O-])c(O)c([N+](=O)[O-])c1.c1ccc(Oc2ccncc2)cc1,inactive: 0.16%
15,CCOC(=O)c1ccc(NP(C)(=O)Oc2ccc(OC)cc2)cc1 (stereo not drawn),inactive: -1.02%
16,CCOP(C)(=S)SCC(=O)NC(C)C(=O)O (stereo not drawn),inactive: -4.74%
17,CP(=O)(Nc1ccccn1)Oc1ccc(Cl)cc1 (stereo not drawn),inactive: -3.81%
18,CP(=S)(Nn1cnnc1)Oc1ccccc1 (stereo not drawn),inactive: -0.71%
19,CP(=O)(Nc1ccccc1Br)Oc1ccccc1 (stereo not drawn),inactive: 4.36%
20,COc1ccccc1OP(C)(=O)Nc1ccccc1 (stereo not drawn),inactive: -4.27%
21,Nc1ccc2c(ccc3cccnc32)n1.O=[N+]([O-])c1cc([N+](=O)[O-])c(O)c([N+](=O)[O-])c1,inactive: -8.05%
22,CCOC(=O)c1ccc(NP(C)(=O)Oc2ccc(Cl)cc2)cc1 (stereo not drawn),inactive: -1.9%

row,SMILES,activation
1,CP(=O)(OC12CC3CC(CC(C3)C1)C2)OC12CC3CC(CC(C3)C1)C2,inactive: -3.98%
2,COc1ccc(OP(C)(=O)Nc2ccc(Br)cc2)cc1 (stereo not drawn),inactive: -3.62%
3,CCN(CC)CC(O)COC(=O)C(O)(c1ccccc1)C1CCCCC1 (stereo not drawn),inactive: -2.39%
4,O=C(OCCCN1CCCC1)C(O)(c1ccccc1)C1CCCCC1 (stereo not drawn),inactive: -5.57%
5,COc1ccccc1OP(C)(=O)Nc1c(C)n(C)n(-c2ccccc2)c1=O (stereo not drawn),inactive: -6.86%
6,CCc1ccc(OP(C)(=O)Nc2cccnc2)cc1 (stereo not drawn),inactive: 0.9%
7,CP(=O)(Oc1ccccc1)N1CCOC1=O (stereo not drawn),inactive: -6.95%
8,COc1ccccc1OP(C)(=O)Nc1ccccc1Br (stereo not drawn),inactive: 2.7%
9,CC(C)(C)c1ccc(OP(C)(=O)O)cc1,inactive: 0.11%
10,CP(=O)(Nc1ccc(Cl)cc1)Oc1ccc(F)cc1 (stereo not drawn),inactive: 1.25%
11,CN(C)C(=O)c1c([N+](=O)[O-])cc([N+](=O)[O-])cc1[N+](=O)[O-],inactive: 1.65%
12,COc1ccccc1OP(C)(=O)Nc1ccc(Br)cc1 (stereo not drawn),inactive: -2.44%
13,COc1ccc(OP(C)(=O)Nc2ccccn2)cc1 (stereo not drawn),inactive: 1.92%
14,CN(C)CCOC(=O)C(O)(c1ccccc1)C1CCCC1 (stereo not drawn),inactive: -0.74%
15,Cc1c(NP(C)(=O)Oc2ccc(C(C)C)cc2)c(=O)n(-c2ccccc2)n1C (stereo not drawn),inactive: -3.13%
16,O=[N+]([O-])c1cc([N+](=O)[O-])c(Nc2ccccn2)c([N+](=O)[O-])c1,inactive: -10.8%
17,COc1ccccc1OP(C)(=O)Nc1ccc(C)cc1C (stereo not drawn),inactive: -9.24%
18,CP(=O)(Nc1ccccn1)Oc1ccccc1 (stereo not drawn),inactive: -4.48%
19,CCc1ccc(OP(C)(=O)O)cc1,inactive: 2.27%
20,Cc1cc(C)cc(OP(C)(=O)Nc2cccc(C(F)(F)F)c2)c1 (stereo not drawn),inactive: -3.01%
21,COc1ccccc1OP(C)(=O)Nc1ccc(C)c(C)c1 (stereo not drawn),inactive: -8.77%
22,COc1ccc(OP(C)(=O)Nc2ccccc2Br)cc1 (stereo not drawn),inactive: 4.2%

row,SMILES,activation
1,Cc1nc2ccc3ccccc3c2o1.O=[N+]([O-])c1cc([N+](=O)[O-])c(O)c([N+](=O)[O-])c1,inactive: 2.01%
2,CP(=O)(Nc1ccc(Cl)cc1Cl)Oc1ccccc1 (stereo not drawn),inactive: -20.9%
3,CP(=O)(OCCOc1ccccc1)OCCOc1ccccc1,inactive: -7.29%
4,CCOC(=O)c1ccc(NP(C)(=O)Oc2ccc(F)cc2)cc1 (stereo not drawn),inactive: -1.26%
5,COc1ccc(OP(C)(=O)Nc2ccc(SC(F)(F)F)cc2)cc1 (stereo not drawn),inactive: -5.36%
6,CCN(CC)CCCOC(=O)C(O)(c1ccccc1)C1CCCCC1 (stereo not drawn),inactive: -16.4%
7,CP(=O)(Nc1ccccc1)Oc1ccc(F)cc1 (stereo not drawn),inactive: -10.2%
8,CCCCCOc1ccc(NP(C)(=O)Oc2ccc(Cl)cc2Cl)cc1 (stereo not drawn),inactive: -7.04%
9,O=[N+]([O-])c1cc([N+](=O)[O-])c(OC2CCCCC2O)c([N+](=O)[O-])c1 (stereo not drawn),inactive: 3.51%
10,CP(=O)(Nc1ccccc1F)Oc1ccccc1 (stereo not drawn),inactive: 2.26%
11,CC(C)c1ccc(OP(C)(=O)Nc2ccc(SC(F)(F)F)cc2)cc1 (stereo not drawn),inactive: -3.98%
12,O=C(OC1CN2CCC1CC2)c1ccc([N+](=O)[O-])cc1 (stereo not drawn),inactive: -8.66%
13,O=C(OCCN1CCN(CCOCc2ccccc2)CC1)C(O)(c1ccccc1)c1ccccc1,inactive: -7.25%
14,COc1ccc2c(c1O)-c1c(O)c(OC)cc3c1[C@H](C2)[N+](C)(C)CC3.O=[N+]([O-])c1cc([N+](=O)[O-])c([O-])c([N+](=O)[O-])c1[O-],inactive: -4.15%
15,CP(=O)(Nc1ccc(SC(F)(F)F)cc1)Oc1ccc(F)cc1 (stereo not drawn),inactive: -5.77%
16,CCOP(C)(=S)SCC(=O)NC(C)(CC)C(=O)O (stereo not drawn),inactive: -6.6%
17,CP(=O)(Nc1ccc2c(c1)OCCO2)Oc1ccccc1 (stereo not drawn),inactive: -1.12%
18,Cc1ccccc1NP(C)(=O)Nc1ccccc1C,inactive: -11.1%
19,COc1ccc(OP(C)(=O)Nc2cccc(Br)c2)cc1 (stereo not drawn),inactive: -12.1%
20,CN(C)CCOC(=O)C(O)(c1ccccc1)C1CCCCC1 (stereo not drawn),inactive: 0.22%
21,COc1ccc(NP(C)(=O)Oc2ccccc2OC)cc1 (stereo not drawn),inactive: 2.55%
22,O=[N+]([O-])c1cc([N+](=O)[O-])c(NCC2CCS(=O)(=O)C2)c([N+](=O)[O-])c1 (stereo not drawn),inactive: -5.41%
